Measured values: ChEMBL document CHEMBL1136711, “Synthesis and SAR of bicyclic heteroaryl hydroxamic acid MMP and TACE inhibitors” (Bioorg Med Chem Lett, 2003)

Chains of the proteins cited; added tags and fusions are not shown. Lines headed by an entry give the natural chain unless they say otherwise; changes in a name come on top.
UniProt P14780: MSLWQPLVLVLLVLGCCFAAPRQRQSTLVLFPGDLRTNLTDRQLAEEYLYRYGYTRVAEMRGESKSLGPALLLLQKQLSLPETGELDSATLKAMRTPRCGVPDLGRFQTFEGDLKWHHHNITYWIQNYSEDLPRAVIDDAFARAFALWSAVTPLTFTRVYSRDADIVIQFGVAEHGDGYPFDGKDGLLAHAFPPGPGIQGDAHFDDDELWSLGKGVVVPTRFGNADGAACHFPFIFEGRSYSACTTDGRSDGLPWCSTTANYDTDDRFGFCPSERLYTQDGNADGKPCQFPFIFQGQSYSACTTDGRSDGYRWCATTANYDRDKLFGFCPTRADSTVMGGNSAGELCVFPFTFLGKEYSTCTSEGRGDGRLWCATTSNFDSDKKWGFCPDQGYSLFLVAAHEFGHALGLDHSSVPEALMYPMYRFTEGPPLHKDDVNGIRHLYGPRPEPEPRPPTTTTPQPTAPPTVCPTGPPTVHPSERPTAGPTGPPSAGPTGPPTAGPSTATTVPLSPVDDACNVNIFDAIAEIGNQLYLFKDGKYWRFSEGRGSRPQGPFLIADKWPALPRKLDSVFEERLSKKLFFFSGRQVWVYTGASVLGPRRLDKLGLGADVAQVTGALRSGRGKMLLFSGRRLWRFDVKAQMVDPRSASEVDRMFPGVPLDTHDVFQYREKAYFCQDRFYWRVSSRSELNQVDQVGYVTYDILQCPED

How the values were obtained:
[1] = target: Matrix metalloproteinase-9 (Homo sapiens, UniProt P14780); test: Inhibitory activity against matrix metalloprotease 9 (MMP-9).
Collagenase 3 = Collagenase 3 (Homo sapiens, UniProt P45452); test: Inhibitory activity against matrix metalloprotease 13 (MMP-13).
Interstitial collagenase = target: T1, Interstitial collagenase (Homo sapiens, UniProt P03956); test: Inhibitory activity against matrix metalloprotease 1 (MMP-1).
T1 sequence (P03956 whole entry): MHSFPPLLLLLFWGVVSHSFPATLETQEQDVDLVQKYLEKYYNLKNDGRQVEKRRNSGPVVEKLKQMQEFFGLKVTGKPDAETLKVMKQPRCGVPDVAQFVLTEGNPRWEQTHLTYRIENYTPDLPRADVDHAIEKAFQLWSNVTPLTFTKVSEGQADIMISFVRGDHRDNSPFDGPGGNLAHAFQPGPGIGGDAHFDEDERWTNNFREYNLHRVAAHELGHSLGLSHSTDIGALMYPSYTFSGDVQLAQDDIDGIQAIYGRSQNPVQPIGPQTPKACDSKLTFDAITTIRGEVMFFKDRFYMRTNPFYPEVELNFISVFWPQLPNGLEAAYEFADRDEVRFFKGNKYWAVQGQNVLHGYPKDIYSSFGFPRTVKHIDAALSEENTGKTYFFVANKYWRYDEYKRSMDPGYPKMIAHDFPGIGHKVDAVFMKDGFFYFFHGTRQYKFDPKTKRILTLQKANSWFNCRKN

Row | SMILES | IC50 [1] | IC50 (Collagenase 3) | IC50 (Interstitial collagenase)
1 | Cc1nn(C)c2ncc(C(=O)NO)c(N(C)S(=O)(=O)c3ccc(Oc4ccc(Cl)cc4)cc3)c12 | 1 nM | 1 nM | –
2 | COc1ccc(S(=O)(=O)N(Cc2cccnc2)c2c(C(=O)NO)cnc3cc(C(F)(F)F)ccc23)cc1 | – | – | 77 nM
3 | CC#CCOc1ccc(S(=O)(=O)N(C)c2c(C(=O)NO)cnc3c2c(C)nn3C)cc1 | – | – | 1000 nM
4 | O=C(NO)c1cnc2cc(C(F)(F)F)ccc2c1N(Cc1cccnc1)S(=O)(=O)c1ccc(-c2ccccc2)cc1 | – | – | 4200 nM
5 | COc1ccc(S(=O)(=O)N(Cc2ccccc2)c2c(C(=O)NO)cnc3ccc(C(F)(F)F)cc23)cc1 | – | – | 172 nM
6 | COc1ccc(S(=O)(=O)N(Cc2ccccc2)c2c(C(=O)NO)cnc3cc(Br)ccc23)cc1 | – | – | 172 nM
